System: anti-CD3 activated human PBMCs
Test: Effect of compounds on the level of IL-2 secretion by anti-CD3 activated human PBMCs (IL-2 ELISA)
Format: cell-based
Protocol: 2. Inoculate the resuspended cells into a 96-well cell culture plate at 200 ul/well of cell suspension, and incubate in a 37° C. cell incubator for 1 h;
3. Adjust the compound concentration with DMSO, starting at a final concentration of 3 μM, and perform a 3-fold dilution sequentially for 10 concentration gradients, with an additional DMSO control well set up; and
4. Adjust the CD3 antibody to an appropriate concentration to achieve a final concentration of 2 μg/mL, mix thoroughly, and incubate in a 37° C. cell incubator for 48h.
5. After 48 h, centrifuge at 1500 rpm for 5 min to collect the supernatant of the culture medium for the human IL-2 ELISA test.
The OD values obtained from the ELISA test are converted into the fold change (FC) in IL-2 concentration. […] The EC50 is calculated using GraphPad Prism. When the fold change=5, the corresponding compound concentration is CFC=5 (in nM).

In the case of `C[C@H]1CCCN(Cc2cc3c(C(F)(F)F)cn(-c4cccc([C@]5(c6nncn6C)C[C@@H](C)C5)c4)c(=O)c3[nH]2)C1` [Compound T058, 6-(3-((1s,3R)-3-methyl-1-(4-methyl-4H-1,2,4-triazol-3-yl)cyclobutyl)phenyl)-2-(((S)-3-methylpiperidin-1-yl)methyl)-4-(trifluoromethyl)-1,6-dihydro-7H-pyrrolo[2,3-c]pyridin-7-one], the “IL-2 CFC=5/nM” value is reported as less than 500 nM.

Source: patent US20260217706A1, “HETEROCYCLIC COMPOUNDS, PREPARATION METHOD THEREFOR AND USE THEREOF” (GUANGZHOU YUFAN NANTU BIOTECHNOLOGIES CO., LTD, priority 2023, published 2026)
